The SangsterLogP compilation

**Q.** For CN(C)CCCN1c2ccccc2Sc2ccc(Cl)cc21, which logP is on record?
**A.** 5.34
